# US20260382588A1, “COMPOUNDS CONTAINING A HYDROXYPHENYL MOIETY AND THEIR USE” (published 2026)
# Tested on: PERK and ATF6
# Assay: Expression of downstream effectors of PERK and ATF6 (Chop, Herpud1 mRNA)
# Conditions: data not shown
# Protocol: Quantitative real-time PCR—Total RNA was prepared using TRIzol reagent (Invitrogen, Carlsbad, CA, USA). All RNAs were reverse-transcribed with Maxima Reverse Transcriptase (Thermo Scientific, Waltham, MA, USA), according to manufacturer protocol. qPCR was performed via a StepOnePlus™ Real-Time PCR Systems from Applied Biosystems and the SYBR Green PCR Core reagents kit (Takara). Analysis was carried out using QuantStudio™ Design and Analysis software version 1.3.1. Three technical repeats were performed per experiment and at least three biological repeats were performed per point per experiment. Each sample was extract individually for RNA and performed the quantification of mRNA levels by qPCR for several targets.
# The effect of compounds 28 (Z4P) and 33 (Z4) on RIDD was then tested by interrogating the levels of the known RIDD target Sparc mRNA (46) in U87 cells upon treatment with the transcriptional blocker actinomycin D and the ER stressor tunicamycin. Both compound 33 (Z4) and 28 (Z4P) blocked tunicamycin-induced degradation of Sparc mRNA compared to control treatment (FIG. 2C) whilst had no effect on Sparc mRNA in cells overexpressing a dominant negative (DN) form of IRE1 (data not shown). The specificity of these compounds in the context of the other arms of the UPR, PERK in particular, was then investigated. This was done to ensure that the stress responses related to compounds 28 (Z4P) and 33 (Z4) were wholly due to their action on IRE1 rather than other UPR transducers. The expression of downstream effectors of PERK and ATF6 was evaluated. […] This was also confirmed at the level of eIF2α phosphorylation and ATF4 protein expression which were not altered upon exposure to compound 33 (Z4) (data not shown). […] Consequently, to further document the characteristics of compound 33 (Z4) at the protein level, U251 (commonly available GB cell line) and RADH87 (G. Auf et al., Proc Natl Acad Sci USA, 2010, 107, 15553-15558) (human tumor-derived primary GB cell line) cells were treated and their proteome were evaluated. Treatment of U251 and RADH87 cells with compound 33 (Z4) impacted on particular pathways such as cell adhesion, circulatory system development, cell locomotion and cell migration; all properties involved in tumor establishment (e.g. angiogenesis) and tumor invasion (e.g. metastasis) (data not shown). The proteomes of these GB lines exposed to compound 33 (Z4) was then functionally compared to those of the same cell lines in which IRE1 activity was invalidated genetically either using a dominant negative construct reported previously (B. Drogat, et al., Cancer Res., 2007, 67, 6700-6707) or a truncated mutant variant of IRE1 lacking an RNase domain (Q780stop) (S. Lhomond, et al., EMBO Molecular Medicine, 2018, 10, e7929) (data not shown). […] Proteome alterations upon compound 33 (Z4) exposure phenocopied those observed in cells in which IRE1 activity was genetically blunted, thus reinforcing the selectivity of compound 33 (Z4) towards IRE1 (data not shown). Having extensively documented the effect and specificity of Z4-compounds on IRE1, it was then tested whether compounds 28 (Z4P), 33 (Z4), 34 (Z4A), 35 (Z4B), 36 (Z4C), 37 (Z4D) and 38 (Z4E) could sensitize GB cells to the standard of care chemotherapy, TMZ. Cell viability assays were carried out on U87 cells treated with sub-toxic doses of compound 33 (Z4) and compound 28 (Z4P) (data not shown) and escalating doses of TMZ.
SMILES,Chop mRNA,Herpud1 mRNA
Cc1ccc(C(N)=O)cc1NC(=O)NC(C)CCc1ccc(O)cc1 (racemic),Neither Chop nor Herpud1 mRNA were significantly affected,Neither Chop nor Herpud1 mRNA were significantly affected

# Same assay, conditions: other UPR branches (PERK, ATF6)
row,SMILES,impact on the other UPR branches
1,CC(CCc1ccc(O)cc1)NC(=O)C(=O)Nc1cc(C(N)=O)ccc1F (stereo not drawn),did not significantly impact the other UPR branches
2,Cc1ccc(C(=O)NC2CC2)cc1NC(=O)NC(C)CCc1ccc(O)cc1 (stereo not drawn),did not significantly impact the other UPR branches
3,Cc1ccc(C)c(NC(=O)NC(C)CCc2ccc(O)cc2)c1 (racemic),did not significantly impact the other UPR branches
4,CNC(=O)c1ccc(C)c(NC(=O)NC(C)CCc2ccc(O)cc2)c1 (stereo not drawn),did not significantly impact the other UPR branches
5,CCNC(=O)c1ccc(C)c(NC(=O)NC(C)CCc2ccc(O)cc2)c1 (stereo not drawn),did not significantly impact the other UPR branches
6,CC(CCc1ccc(O)cc1)NC(=O)Nc1cc(C(N)=O)ccc1F (stereo not drawn),did not significantly impact the other UPR branches
7,Cc1ccc(C(N)=O)cc1NC(=O)NC(C)CCc1ccc(O)cc1 (racemic),did not significantly impact the other UPR branches
